Data as given in publication PMC5159281 (2016).

Columns and labels:
[1] = tested on: HepG2 cells; assay: cells; settings: Homo sapiens, HepG2, read-out: HepG2 EC50
[2] = tested on: CRL-8155 cells; assay: cells; settings: Homo sapiens, CRL8155, read-out: CRL8155 EC50
[3] = tested on: P. falciparum blood stage; settings: result in words

In the case of CC(C)n1nc(-c2ccc3nc(OC4CCC4)ccc3c2)c(C(N)=O)c1N [Compound 27], the EC50 [1] is reported as over 30 µM and the EC50 [2] is reported as over 30 µM.
In the case of NC(=O)c1c(-c2ccc3ccccc3c2)nn(CC(F)(F)F)c1N [Compound 12], the EC50 [1] is reported as over 30 µM and the EC50 [2] is reported as over 30 µM.
CCOc1ccc2cc(-c3nn(C(C)(C)C)c(N)c3C(N)=O)cnc2c1 [Compound 6] was tested, and the EC50 [2] was over 30 µM.
In the case of CCOc1ccc2cc(-c3nn(C(C)(C)C)c(N)c3C(N)=O)ccc2c1 [Compound 5], the anti-erythrocytic stage inhibition [3] is reported as “some observable anti-erythrocytic stage inhibition”, the EC50 [1] is reported as over 30 µM and the EC50 [2] is reported as over 30 µM.
Molecule CC(C)(C)n1nc(-c2cnc3cc(OC4CC4)ccc3c2)c(C(N)=O)c1N [Compound 8] has an EC50 [1] of over 30 µM and an EC50 [2] of over 30 µM.
